Columns and labels:
SCC VII tumor [1] = assay: Radiosensitization effect of GLYN and SG on SCC VII tumor growth; details: SG 400 mg/kg single dose + 7 Gy radiation; p<0.05 compared with radiation alone
SCC VII tumor [2] = assay: Chemosensitization effect of GLYN in combination with cis-platin on SCC VII tumor growth; details: CDDP 5 mg/kg single dose alone, s.c. SCC VII tumors in mice

Substance	4x tumor growth delay time (SCC VII tumor [1]) [days]	4x TGT (tumor growth time: tumor volume quadrupling time) (SCC VII tumor [2]) [days]	TGD (tumor growth delay time: 4x TGT of treated tumors minus mean 4x TGT of control tumors) (SCC VII tumor [2]) [days]	TGD (tumor growth delay time: 4x TGT of treated tumors minus mean 4x TGT of control tumors) (SCC VII tumor [2]; listed as Cis-platin) [days]
sodium glycididazole	3.3			
cis-platin		4.1 ± 0.4	1.1 ± 0.4	1.1

Reference: patent US9133150B2, “O-nitro compounds and pharmaceutical compositions including same” (dated 2015)
